In paper PMC5225183, “Fingerprinting of neurotoxic compounds using a mouse embryonic stem cell dual luminescence reporter assay” (Archives of Toxicology, 2016):

Experiments:
[1] = Table S1, three classes; ref per compound in the footnotes of Table S1; cited from earlier work
[2] = test system: ESCs and ESC-derived neurons; settings: mouse

Q: Which “class based on clinical evidence for neurotoxicity” value [1] does the source give for `CC(C)(C)C(=O)C(Oc1ccc(Cl)cc1)n1cncn1` (centres unmarked) [Triadimefon] here?
A: The value was “Possibly (developmental)”.

Q: What about the “Number of non-cytotoxic changes” value [2] of the same compound?
A: The value was 2.
